The list shows a part of the results, in another mix than the full data. Records with an inconclusive call do not appear. Calls of active or inactive are those of the source. Unless noted, the call rests on the fitted dose curve; in most records, active means well fitted curve in the direction sought with a large enough effect; inconclusive means small, poorly fitted or top-dose-only effect, or another doubt; inactive means no such curve, though single readings can be large; an effect the other way counts as inactive or inconclusive.
What was measured:
[1] = qHTS Assay for Inhibitors of Fructose-1,6-bisphosphate Aldolase from Giardia Lamblia: Giardia lamblia growth inhibition (AID 2785); conditions: Giardia lamblia trophozoite growth inhibition; at 38.3 µM (top of the series); further: on the % scale 0 is the no-effect control and ±100 the full control effect; nearly all actives have a fitted effect of over 70% in size
How it was run: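 Whole-parasite growth test: Giardia WB trophozoites in TYI-S-33 (pH 7.0), 100 per well, incubated 48 h at 37C with compound. ATP content was read by ATPlite luminescence.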

Sequences of proteins named here, by UniProt entry; tags and fusion partners are left off. A change or cut given only in a name is not applied to a line headed by its entry.
UniProt A8B2U2: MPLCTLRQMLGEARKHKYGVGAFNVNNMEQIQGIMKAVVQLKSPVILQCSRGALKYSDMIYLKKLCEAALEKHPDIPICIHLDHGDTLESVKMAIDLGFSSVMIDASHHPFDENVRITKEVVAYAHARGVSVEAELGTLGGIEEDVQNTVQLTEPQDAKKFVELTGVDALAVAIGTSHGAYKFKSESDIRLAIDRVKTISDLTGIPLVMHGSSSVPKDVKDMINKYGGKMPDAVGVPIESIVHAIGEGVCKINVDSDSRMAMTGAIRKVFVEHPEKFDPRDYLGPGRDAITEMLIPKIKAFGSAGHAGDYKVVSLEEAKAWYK
UniProt P00883: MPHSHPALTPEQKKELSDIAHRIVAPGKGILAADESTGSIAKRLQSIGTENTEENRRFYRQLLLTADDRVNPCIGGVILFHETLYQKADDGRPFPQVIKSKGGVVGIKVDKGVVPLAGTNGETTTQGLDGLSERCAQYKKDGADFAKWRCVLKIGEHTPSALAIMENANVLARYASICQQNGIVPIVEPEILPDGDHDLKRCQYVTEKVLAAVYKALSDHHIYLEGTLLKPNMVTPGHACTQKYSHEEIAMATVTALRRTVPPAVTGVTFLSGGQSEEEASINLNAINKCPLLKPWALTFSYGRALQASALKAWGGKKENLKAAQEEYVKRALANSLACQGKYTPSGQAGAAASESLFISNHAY
UniProt Q07343: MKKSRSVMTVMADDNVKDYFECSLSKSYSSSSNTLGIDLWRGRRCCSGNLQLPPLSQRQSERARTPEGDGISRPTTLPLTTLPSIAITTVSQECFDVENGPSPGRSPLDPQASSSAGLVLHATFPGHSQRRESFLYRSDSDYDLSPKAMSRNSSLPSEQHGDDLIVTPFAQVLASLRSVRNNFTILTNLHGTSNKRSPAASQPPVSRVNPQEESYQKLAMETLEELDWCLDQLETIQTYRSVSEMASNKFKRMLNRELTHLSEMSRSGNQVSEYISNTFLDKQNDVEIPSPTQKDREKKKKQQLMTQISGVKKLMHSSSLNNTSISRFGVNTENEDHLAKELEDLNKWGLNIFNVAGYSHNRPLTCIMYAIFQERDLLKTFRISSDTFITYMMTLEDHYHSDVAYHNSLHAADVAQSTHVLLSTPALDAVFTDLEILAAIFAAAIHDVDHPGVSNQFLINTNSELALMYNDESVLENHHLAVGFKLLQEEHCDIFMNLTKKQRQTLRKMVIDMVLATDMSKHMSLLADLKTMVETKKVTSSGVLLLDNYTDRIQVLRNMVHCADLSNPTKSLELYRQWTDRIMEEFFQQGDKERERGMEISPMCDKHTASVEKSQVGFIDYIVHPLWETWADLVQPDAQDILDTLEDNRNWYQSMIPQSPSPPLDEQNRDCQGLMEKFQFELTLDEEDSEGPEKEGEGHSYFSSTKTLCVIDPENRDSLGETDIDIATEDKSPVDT
UniProt Q99828: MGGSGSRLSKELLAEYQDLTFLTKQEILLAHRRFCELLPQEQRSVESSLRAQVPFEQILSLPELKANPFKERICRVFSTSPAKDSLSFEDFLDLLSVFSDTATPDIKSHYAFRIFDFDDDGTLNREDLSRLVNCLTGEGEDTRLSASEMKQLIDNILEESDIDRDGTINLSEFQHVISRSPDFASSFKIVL
UniProt P08684, whole entry, looked up: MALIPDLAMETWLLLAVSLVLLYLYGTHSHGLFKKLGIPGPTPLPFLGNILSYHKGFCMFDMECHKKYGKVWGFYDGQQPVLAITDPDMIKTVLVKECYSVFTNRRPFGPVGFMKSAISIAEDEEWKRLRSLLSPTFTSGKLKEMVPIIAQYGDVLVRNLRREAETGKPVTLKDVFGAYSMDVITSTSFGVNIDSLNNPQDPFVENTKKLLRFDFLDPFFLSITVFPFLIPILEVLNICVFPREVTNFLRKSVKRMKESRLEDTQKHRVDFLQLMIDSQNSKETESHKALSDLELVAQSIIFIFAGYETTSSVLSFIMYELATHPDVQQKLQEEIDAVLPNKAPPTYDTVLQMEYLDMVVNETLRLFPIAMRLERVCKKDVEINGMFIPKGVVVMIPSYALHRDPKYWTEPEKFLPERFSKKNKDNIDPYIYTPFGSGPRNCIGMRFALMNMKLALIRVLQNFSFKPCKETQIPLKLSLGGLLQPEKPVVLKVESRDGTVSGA
UniProt P11712, whole entry, looked up: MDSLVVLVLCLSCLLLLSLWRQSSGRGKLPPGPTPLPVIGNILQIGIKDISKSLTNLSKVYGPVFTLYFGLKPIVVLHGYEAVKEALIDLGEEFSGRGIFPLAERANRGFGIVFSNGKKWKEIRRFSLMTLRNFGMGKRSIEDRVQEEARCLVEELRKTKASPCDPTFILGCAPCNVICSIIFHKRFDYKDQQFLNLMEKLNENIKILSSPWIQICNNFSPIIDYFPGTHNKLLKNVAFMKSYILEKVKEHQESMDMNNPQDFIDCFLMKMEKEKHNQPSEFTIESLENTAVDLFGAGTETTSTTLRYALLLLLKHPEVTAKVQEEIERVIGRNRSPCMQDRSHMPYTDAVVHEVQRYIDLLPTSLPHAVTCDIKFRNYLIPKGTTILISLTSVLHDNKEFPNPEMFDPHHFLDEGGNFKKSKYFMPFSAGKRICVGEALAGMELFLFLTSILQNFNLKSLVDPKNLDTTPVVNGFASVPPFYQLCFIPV
UniProt P36969, whole entry, looked up: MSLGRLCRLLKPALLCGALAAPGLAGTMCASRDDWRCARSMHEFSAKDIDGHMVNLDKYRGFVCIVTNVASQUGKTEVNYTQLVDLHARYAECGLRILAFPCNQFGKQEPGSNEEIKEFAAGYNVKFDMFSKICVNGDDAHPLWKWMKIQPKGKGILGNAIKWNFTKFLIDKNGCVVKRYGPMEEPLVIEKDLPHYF

[2] = qHTS Assay for Inhibitors of Fructose-1,6-bisphosphate Aldolase from Giardia Lamblia: Mammalian cellular toxicity (AID 2786); conditions: mammalian cell viability counter-screen; at 57.5 µM (top of the series);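 further: compound exposure lasted 48 h before reading; on the % scale 0 is the no-effect control and ±100 the full control effect; nearly all actives have a fitted effect of over 60% in size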
How it was run: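 Mammalian cytotoxicity surrogate: Chinese hamster ovary cells exposed to compound for 48 h at 37 °C. Cellular ATP then measured with ATPlite reagent, 20 min incubation.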

[3] = molecular target: Fructose-bisphosphate aldolase (Giardia intestinalis (strain ATCC 50803 / WB clone C6)) (UniProt A8B2U2); assay: qHTS Assay for Inhibitors of Fructose-1,6-bisphosphate Aldolase from Giardia Lamblia: Primary screen confirmation (AID 2787); conditions: purified Giardia aldolase enzyme activity; at 57.5 µM (top of the series);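 further: aldolase product measured through coupled diaphorase step turning resazurin into fluorescent resorufin; on the % scale 0 is the no-effect control and ±100 the full control effect; nearly all actives have a fitted effect of over 45% in size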
How it was run: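 Confirmation of primary hits by qHTS up to 57.5 uM final compound. Enzyme at 40 nM with 30 uM ZnCl2, 10 min RT pre-incubation, then substrate/coupling/resorufin-forming detection mix for 20 min before fluorescence read at 525/598 nm.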

[4] = molecular target: Fructose-bisphosphate aldolase A (Oryctolagus cuniculus) (UniProt P00883); assay: qHTS Assay for Inhibitors of Fructose-1,6-bisphosphate Aldolase from Giardia Lamblia: Rabbit FBPA Selectivity (AID 2794); conditions: Rabbit muscle FBPA enzyme inhibition, selectivity counter-screen; at 57.5 µM (top of the series); further: on the % scale 0 is the no-effect control and ±100 the full control effect; nearly all actives have a fitted effect of over 60% in size
How it was run: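 Rabbit FBPA, coupled to a resorufin-type fluorescent read (525/598 nm), tests whether primary hits hit Class I aldolase. Compound (up to 57.5 uM final) sits 10 min at RT with coupling enzyme before substrate/detection mix; read after 20 min RT.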

[5] = qHTS Assay for Inhibitors of Fructose-1,6-bisphosphate Aldolase from Giardia Lamblia: Coupling assay counterscreen confirmation (AID 2795); conditions: GAPDH coupling enzyme counterscreen, biochemical; at 57.5 µM (top of the series); further: on the % scale 0 is the no-effect control and ±100 the full control effect; nearly all actives have a fitted effect of over 55% in size
How it was run: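 Fluorescence (excitation 525 nm, emission 598 nm) reports signal from the coupled glyceraldehyde-3-phosphate dehydrogenase system with an AmpLite Red detection kit. Compounds up to 57.5 uM final were incubated 10 min, then 20 min after substrate addition, both at room temperature.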

[6] = AP1 Signaling Pathway (AID 357; active means well fitted curve in either direction with a large enough effect, not every such curve was filed as active;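 further: ME-180 reporter cells stimulated with EGF at its EC50 level; on the % scale 0 is the no-effect control and ±100 the full control effect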); conditions: ME-180 AP-1-bla reporter, EGF-induced, beta-lactamase ratio, 5 h; at 7.69 µM (top of the series) unless noted
How it was run: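 Read-out was the 460nm/530nm emission ratio (excitation 405nm) after CCF4 loading for 2.5 hours at room temperature. Cells carried an AP-1-driven beta-lactamase reporter, were stimulated with EC50 EGF plus compound for 5 hours, and AC50 values came from titrations.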

[7] = NFAT Signaling Pathway (AID 444; active means well fitted curve in either direction with a large enough effect, not every such curve was filed as active;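 further: carbachol stimulus at about its EC50 of 1 µM final; on the % scale 0 is the no-effect control and ±100 the full control effect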); conditions: Jurkat NFAT-bla M1, carbachol, beta-lactamase ratio, 5 h; at 7.69 µM (top of the series) unless noted
[8] = Stat Signaling Pathway (AID 446; active means well fitted curve in either direction with a large enough effect, not every such curve was filed as active;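 further: ME-180 cervical cancer cells given 40 pM IL-6 alongside compound; SIE-controlled beta-lactamase reporter measured as 460/530 nm FRET emission ratio; on the % scale 0 is the no-effect control and ±100 the full control effect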); conditions: ME-180 SIE beta-lactamase reporter, IL-6 stimulated, 5 h; at 7.69 µM (top of the series) unless noted
How it was run: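 Reporter line: ME-180 cervical carcinoma, SIE-beta-lactamase. Treatment: compound with 40 pM IL-6, 5 hrs, 37 C, in low-serum OPTI-MEM with 10 mM HEPES pH 7.3. Detection: 460/530 nm fluorescence.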

[9] = molecular target: Mitogen-activated protein kinase 10 (Mus musculus) (UniProt Q61831); assay: JNK3 AlphaScreen Assay (AID 530; active means well fitted curve in either direction with a large enough effect, not every such curve was filed as active;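 further: kinase came from lysate of stimulated human HepG2 cells; signal reports phosphorylation of biotinylated GST-cJun 1-79 at Ser73 with 10 µM ATP; on the % scale 0 is the no-effect control and ±100 the full control effect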); conditions: JNK3 lysate, c-Jun phosphorylation; at 11.4 µM (top of the series) unless noted
How it was run: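 Compound titrations were preincubated 15 minutes at room temperature with substrate, antibody and pre-activated JNK3-containing HepG2 lysate. Reactions were started with 10 uM ATP and stopped with EDTA-containing bead buffer for AlphaScreen detection.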

[10] = molecular target: 3',5'-cyclic-AMP phosphodiesterase 4B (Homo sapiens) (UniProt Q07343); assay: qHTS Assay for Inhibitors of PDE-IV (AID 607; active means well fitted activation curve with a large enough effect in the main read-out, with a control signal flat, not every such curve was filed as active; further: % of control where 0% means no effect); conditions: HEK293 ACTOne CNG channel cells, membrane potential fluorescence; at 22.9 µM (top of the series)
How it was run: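 Cell-based read-out of cAMP via a modified cyclic nucleotide-gated channel and membrane potential dye (535/590 nm) in HEK293 cells expressing PDE4 endogenously. Compounds tested up to 22.9 uM final; 100 uM RO 20-1724 reference.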

[11] = P-glycoprotein substrates identified in KB-8-5-11 adenocarcinoma cell line, qHTS therapeutic library screen (AID 1346987); conditions: KB-8-5-11 (P-gp overexpressing) viability, CellTiter-Glo, 72 h; at 44.5 µM (top of the series) unless noted; further: on the % scale 0 is the no-effect control and ±100 the full control effect; nearly all actives have a fitted effect of over 65% in size
[12] = molecular target: Calcium and integrin-binding protein 1 (Homo sapiens) (UniProt Q99828); assay: Primary qHTS for Identification of Calcium Integrin Binding Protein 1 (CIB1) Competitor (AID 1508620); conditions: CIB1-GST / FITC-alphaIIb peptide fluorescence polarization; at 114 µM (top of the series) unless noted
[13] = molecular target: Cytochrome P450 3A4 (Homo sapiens) (UniProt P08684); assay: Cytochrome P450 family 3 subfamily A member 4 (CYP3A4) small molecule antagonists: luciferase qHTS assay (AID 1645841; active means well fitted curve in the direction sought with a large enough effect in the repeat runs; an effect the other way counts as inactive or inconclusive; further: nearly all actives have a fitted effect of over 45% in size)
[14] = molecular target: Cytochrome P450 2C9 (Homo sapiens) (UniProt P11712); assay: Cytochrome P450 family 2 subfamily C member 9 (CYP2C9) small molecule antagonists: luciferase qHTS assay (AID 1645842; active means well fitted curve in the direction sought with a large enough effect in the repeat runs; an effect the other way counts as inactive or inconclusive; further: on the % scale 0 is the no-effect control and ±100 the full control effect; nearly all actives have a fitted effect of over 55% in size); conditions: P450-Glo CYP2C9 enzyme assay, luciferin luminescence; at 57.4 µM (top of the series) unless noted
How it was run: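 Luminescence, after 20 min with luciferin detection reagent, reflected CYP2C9 turnover during a 1 h NADPH-driven reaction at 37C. Enzyme-substrate mix contained 0.4% bovine serum albumin and was preincubated with compound 10 min at room temperature.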

[15] = molecular target: Phospholipid hydroperoxide glutathione peroxidase GPX4 (Homo sapiens) (UniProt P36969); assay: Primary qHTS Assay for Inhibitors of Recombinant Selenoprotein Glutathione Peroxidase 4 (GPX4) (AID 1845192); conditions: recombinant GPX4, GR-coupled NADPH fluorescence, 15 min; activity change, negative = inhibition: at 50 µM (top of the series); further: on the % scale 0 is the no-effect control and ±100 the full control effect; nearly all actives have a fitted effect of over 65% in size
How it was run: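 NADPH consumption, followed by fluorescence at 340/450 nm between 0 and 15 min, reports GPX4 activity via coupled glutathione reductase (100 nM). Enzyme 200 nM was pre-exposed to compound 30 min; 0.5 mM cumene hydroperoxide and 1 mM GSH served as substrates.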

[16] = molecular target: Luciferin 4-monooxygenase (Photinus pyralis) (UniProt P08659); assay: Primary firefly luciferase (FLuc) qHTS assay for identification of artifact compounds. (AID 1845220); conditions: purified firefly luciferase, luminescence, 5 min; activity change, negative = inhibition: at 54.1 µM (top of the series);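 further: plate controls were DMSO vehicle for no effect and no enzyme for full effect; nearly all actives have a fitted effect of over 60% in size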
How it was run: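 Compounds sat 15 min at room temperature with 10 uM luciferin and 10 uM ATP (pH 7.6 Tris acetate). Firefly luciferase (10 nM final) was then added, and luminescence was read 5 min later. Data normalized to no-enzyme and DMSO controls were Hill-fitted.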

[17] = test system: Nanoluciferase (engineered Oplophorus gracilirostris luciferase); assay: Primary Nanoluciferase (NLuc) qHTS assay for identification of artifact compounds. (AID 1845222); conditions: NLuc-conditioned medium, Nano-Glo luminescence, 5 min; at 54.1 µM (top of the series);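 further: 0% = DMSO and -100% = no enzyme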
How it was run: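 Luminescence from secreted NLuc (filtered, 1:55-diluted S16 cell medium) read 5 min after Nano-Glo substrate; compounds preincubated 15 min, RT. Hill fits of inhibition normalized to DMSO and no-enzyme.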

[18] = Primary redox qHTS assay for identification of artifact compounds. (AID 1845223); conditions: Amplex Red/HRP redox cycling with DTT, fluorescence; at 53.8 µM (top of the series);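 further: 0% = DMSO and 100% = reference compound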
How it was run: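 Amplex Red (25 uM) and HRP (250 mU/mL) in HBSS, with compounds for 15 min, then 250 uM DTT for 30 min, room temperature, dark. Fluorescence 525/598 nm read; normalized to DMSO and 10 uM DA3003; Hill fit.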

CRL-7250 = normal cell line; assay: Cytotoxic Profiling of Annotated Libraries Using Quantitative High-Throughput Screening (AID 1296008); conditions: Five cell lines viability, CellTiter-Glo ATP luminescence, 48-72 h; hits give low values; further: on the % scale 0 is the no-effect control and ±100 the full control effect; nearly all actives have a fitted effect of over 60% in size
HEK293 = assay: as above; conditions: Five cell lines viability, CellTiter-Glo ATP luminescence, 48-72 h; max response: hits give low values
KB-3-1 = assay: as above; conditions: Five cell lines viability, CellTiter-Glo ATP luminescence, 48-72 h, hits give low values
NIH3T3 = assay: as above; conditions: Five cell lines viability, CellTiter-Glo ATP luminescence, 48-72 h; hits give low values
C33A = assay: Primary qHTS to identify gynecologic anti-cancer compounds using libraries of approved drugs and bioactive compounds (AID 1345084); conditions: Gynecologic cancer cell panel viability, ATPlite luminescence, 48 h; at 57.5 µM (top of the series) unless noted; further: on the % scale 0 is the no-effect control and ±100 the full control effect; nearly all actives have a fitted effect of over 55% in size
How it was run: (§1)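 Luminescence from the ATPlite ATP-monitoring reagent indicates viable cell number; lower signal means cytotoxicity. Cells received compound 16 h after seeding and were exposed for 48 h across five concentrations.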

CAOV3 = assay: as above; conditions: Gynecologic cancer cell panel viability, ATPlite luminescence, 48 h; at 57.5 µM (top of the series) unless noted
How it was run: as §1

CASKI = assay: as above; conditions: Gynecologic cancer cell panel viability, ATPlite luminescence, 48 h; at 57.5 µM (top of the series) unless noted
How it was run: as §1

Es-2 = assay: as above; conditions: Gynecologic cancer cell panel viability, ATPlite luminescence, 48 h; at 57.5 µM (top of the series) unless noted
How it was run: as §1

HeLa = assay: as above; conditions: Gynecologic cancer cell panel viability, ATPlite luminescence, 48 h; at 57.5 µM (top of the series) unless noted
How it was run: as §1

Hek293T = assay: as above; conditions: Gynecologic cancer cell panel viability, ATPlite luminescence, 48 h, control line for the selectivity index; at 57.5 µM (top of the series) unless noted
How it was run: as §1

JEG-3 = assay: as above; conditions: Gynecologic cancer cell panel viability, ATPlite luminescence, 48 h; at 57.5 µM (top of the series) unless noted
How it was run: as §1

OV90 = assay: as above; conditions: Gynecologic cancer cell panel viability, ATPlite luminescence, 48 h; at 57.5 µM (top of the series) unless noted
How it was run: as §1

SKOV3 = assay: as above; conditions: Gynecologic cancer cell panel viability, ATPlite luminescence, 48 h; at 57.5 µM (top of the series) unless noted
How it was run: as §1

Tov-21-G = assay: as above; conditions: Gynecologic cancer cell panel viability, ATPlite luminescence, 48 h; at 57.5 µM (top of the series) unless noted
How it was run: as §1

Tov112D = assay: as above; conditions: Gynecologic cancer cell panel viability, ATPlite luminescence, 48 h; at 57.5 µM (top of the series) unless noted
How it was run: as §1

Cc1cc(SC(NC(=O)c2ccc(F)cc2)C(Cl)(Cl)Cl)ncn1 (stereo not drawn)
inactive: activity change, negative = inhibition [1] -16.7% | viability change, negative = toxicity [2] -13.6% | activity change, negative = inhibition [3] -2.77% | activity, negative = inhibition [4] -1.99% | activity change, negative = inhibition [5] -5.03%

C(Cc1nn[nH]n1)c1nn[nH]n1
inactive: activity change, negative = inhibition [6] 7.66% | activity change, negative = inhibition [7] 12.9% | activity, negative = inhibition [8] -12.1% | activity change, negative = inhibition [9] 3.65% | activation (PDE inhibition) [10] -1.34%

CC(C)(C)C(=O)NC(Sc1ncccn1)C(Cl)(Cl)Cl (stereo not drawn)
inactive: activity change, negative = inhibition [1] -13.3% | viability change, negative = toxicity [2] 3.04% | activity change, negative = inhibition [3] 8.77% | activity, negative = inhibition [4] 8.17% | activity change, negative = inhibition [5] -8.97%

O=C(O[C@H]1CN2CCC1CC2)C1NCc2ccccc2[C@@H]1c1ccccc1 (stereo partly drawn)
inactive: activity change, negative = cytotoxicity [11] -28% | activity change, negative = inhibition [12] 0.439% | Potency [13] | activity change, negative = inhibition [14] 3.13% | activity change, negative = inhibition [15] -0.31% | activity change, negative = inhibition [16] -30% | activity, negative = inhibition [17] -15.3% | redox activity (% of DA3003) [18] 19.8% | max response (CRL-7250) -3.21% | max response (HEK293) -23.8% | max response (KB-3-1) -16.3% | max response (NIH3T3) -5.14% | activity change, negative = cytotoxicity (C33A) -2.37% | activity change, negative = cytotoxicity (CAOV3) 0.516% | activity change, negative = cytotoxicity (CASKI) 13% | activity change, negative = cytotoxicity (Es-2) 1.09% | activity change, negative = cytotoxicity (HeLa) -1.44% | activity change, negative = cytotoxicity (Hek293T) -7.47% | activity change, negative = cytotoxicity (JEG-3) -1.59% | activity change, negative = cytotoxicity (OV90) 2.88% | activity change, negative = cytotoxicity (SKOV3) 24.7% | activity change, negative = cytotoxicity (Tov-21-G) 3.64% | activity change, negative = cytotoxicity (Tov112D) -1.64%

— PubChem BioAssay (NCATS)
